Experimental data from ChEMBL document CHEMBL1122861, “Synthesis and activity profiles of novel cyclic opioid peptide monomers and dimers” (J Med Chem, 1985).

The chains behind the UniProt entries cited, without tags or fusion partners.
UniProt P33533, whole entry, looked up: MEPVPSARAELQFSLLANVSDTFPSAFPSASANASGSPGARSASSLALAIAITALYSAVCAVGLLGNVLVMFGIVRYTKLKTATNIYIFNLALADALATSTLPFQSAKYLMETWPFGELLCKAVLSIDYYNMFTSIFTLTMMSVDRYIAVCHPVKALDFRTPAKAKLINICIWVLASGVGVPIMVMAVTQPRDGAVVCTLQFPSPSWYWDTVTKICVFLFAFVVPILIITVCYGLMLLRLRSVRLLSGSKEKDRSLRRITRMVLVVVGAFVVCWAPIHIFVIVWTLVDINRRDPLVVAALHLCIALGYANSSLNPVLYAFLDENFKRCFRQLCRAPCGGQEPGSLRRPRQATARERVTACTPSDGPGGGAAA
UniProt P33535, whole entry, looked up: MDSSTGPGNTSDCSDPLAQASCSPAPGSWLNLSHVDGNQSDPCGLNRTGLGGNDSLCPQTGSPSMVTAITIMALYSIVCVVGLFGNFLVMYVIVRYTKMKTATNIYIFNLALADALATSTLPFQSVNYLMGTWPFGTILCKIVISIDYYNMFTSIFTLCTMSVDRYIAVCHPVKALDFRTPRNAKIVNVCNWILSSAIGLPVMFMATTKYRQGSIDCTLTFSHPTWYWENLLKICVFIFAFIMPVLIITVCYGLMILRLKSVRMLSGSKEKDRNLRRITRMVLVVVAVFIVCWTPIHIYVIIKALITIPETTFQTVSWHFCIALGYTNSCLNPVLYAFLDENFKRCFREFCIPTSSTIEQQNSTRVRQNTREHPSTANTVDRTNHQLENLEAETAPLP

Key:
[1] = target: Delta-type opioid receptor (Rattus norvegicus) (UniProt P33533); test: Potency ratio was evaluated for delta receptor binding
[2] = target: Opioid receptors; mu & delta (Rattus norvegicus) (UniProt P33533+P33535); test: Ratio of Ki value towards delta receptor to that of mu receptor.
[3] = target: Mu-type opioid receptor (Rattus norvegicus) (UniProt P33535); test: Potency ratio was evaluated for mu receptor binding
[4] = Relative potency was determined between the MVD assay and the [3H]DSLET binding assay.
[5] = Relative potency was determined between the GPI assay and the [3H]DAGO binding assay
[6] = Ratio of IC50 value using MVD to that of GPI assays.

## NC(=O)[C@@H]1CC(=O)NCCC[C@H](NC(=O)[C@@H](N)Cc2ccc(O)cc2)C(=O)N[C@@H](Cc2ccccc2)C(=O)N[C@H](C(N)=O)CC(=O)NCCC[C@H](NC(=O)[C@@H](N)Cc2ccc(O)cc2)C(=O)N[C@@H](Cc2ccccc2)C(=O)N1
[1]
  Potency ratio: 0.06
[2]
  Selectivity: 1.65
[3]
  Potency ratio: 0.368
[4]
  Relative potency: 0.115
[5]
  Relative potency: 2.21
[6]
  Ratio: 0.893

## CC(C)C[C@@H]1NC(=O)[C@@H](NC(=O)[C@@H](N)Cc2ccc(O)cc2)CCCNC(=O)C[C@@H](C(N)=O)NC1=O
[1]
  Potency ratio: 0.000225
[2]
  Selectivity: 1.2
[3]
  Potency ratio: 0.00138
[4]
  Relative potency: 0.000282
[5]
  Relative potency: 0.0455
[6]
  Ratio: 7.47

## NC(=O)[C@@H]1CCC(=O)NCCC[C@H](NC(=O)[C@@H](N)Cc2ccc(O)cc2)C(=O)NCC(=O)N1
[1]
  Potency ratio: 0.00058
[2]
  Selectivity: 2.83
[3]
  Potency ratio: 0.0053
[4]
  Relative potency: < 0.000285
[5]
  Relative potency: 0.0281
[6]
  Ratio: > 4.57

## NC(=O)[C@@H]1CCCNC(=O)C[C@H](NC(=O)[C@@H](N)Cc2ccc(O)cc2)C(=O)N[C@@H](Cc2ccccc2)C(=O)N[C@H](C(N)=O)CCCNC(=O)C[C@H](NC(=O)[C@@H](N)Cc2ccc(O)cc2)C(=O)N[C@@H](Cc2ccccc2)C(=O)N1
[1]
  Potency ratio: 0.0196
[2]
  Selectivity: 1.5
[3]
  Potency ratio: 0.11
[4]
  Relative potency: 0.0197
[5]
  Relative potency: 0.212
[6]
  Ratio: 0.499

## NC(=O)[C@@H]1CCCNC(=O)C[C@H](NC(=O)[C@@H](N)Cc2ccc(O)cc2)C(=O)N[C@@H](Cc2ccccc2)C(=O)N1
[1]
  Potency ratio: 0.00192
[2]
  Selectivity: 137
[3]
  Potency ratio: 0.985
[4]
  Relative potency: 0.00133
[5]
  Relative potency: 0.471
[6]
  Ratio: 16.4

## CCC[C@H](NC(=O)[C@@H](N)Cc1ccccc1)C(=O)N[C@@H](Cc1ccccc1)C(=O)N[C@@H](CC(N)=O)C(N)=O
[1]
  Potency ratio: 0.00574
[2]
  Selectivity: 37.7
[3]
  Potency ratio: 0.8
[4]
  Relative potency: 0.00516
[5]
  Relative potency: 1.36
[6]
  Ratio: 12.2

## CC(C)[C@H](NC(=O)[C@H](Cc1ccccc1)NC(=O)[C@H](CC(N)=O)NC(=O)[C@@H](N)Cc1ccc(O)cc1)C(N)=O
[1]
  Potency ratio: 0.00092
[2]
  Selectivity: 64.3
[3]
  Potency ratio: 0.22
[4]
  Relative potency: < 0.0005
[5]
  Relative potency: 0.416
[6]
  Ratio: > 38.6

## NC(=O)[C@@H]1CCCCNC(=O)CC[C@H](NC(=O)[C@@H](N)Cc2ccc(O)cc2)C(=O)N[C@@H](Cc2ccccc2)C(=O)N1
[1]
  Potency ratio: 0.0513
[2]
  Selectivity: 49.6
[3]
  Potency ratio: 9.51
[4]
  Relative potency: 0.113
[5]
  Relative potency: 30.8
[6]
  Ratio: 12.6

## NC(=O)[C@@H]1CCC(=O)NCCCC[C@H](NC(=O)[C@@H](N)Cc2ccc(O)cc2)C(=O)N[C@@H](Cc2ccccc2)C(=O)N1
[1]
  Potency ratio: 0.581
[2]
  Selectivity: 3.05
[3]
  Potency ratio: 6.58
[4]
  Relative potency: 2.19
[5]
  Relative potency: 84
[6]
  Ratio: 1.78

## CC(C)C[C@H](NC(=O)[C@H](Cc1ccccc1)NC(=O)CNC(=O)CNC(=O)[C@@H](N)Cc1ccc(O)cc1)C(=O)O
[4]
  Relative potency: 1
[5]
  Relative potency: 1
